## Measured affinities in a library of Ab-14 light chain variants

Target peptide (SARS-CoV-2 spike, HR2 region): PDVDLGDISGINAS

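The starting antibody came from a phage panning campaign against this peptide. These sequences belong to a second round, designed from the earlier measurements on random variants of the parent. Their group label is 14L_GP_Gen (GP: Gaussian process model; Gen: genetic algorithm; a sequence that several methods proposed may carry one label only). The assay is AlphaSeq: two haploid yeast populations carry antibody and antigen on their surface. After mating in shaken culture at 30 °C for 16 h, diploids were selected and their barcode pairs sequenced. Read counts were normalised to the haploid input and turned into Kd by a linear fit to BCL2-family pairs of known affinity, for each replicate. The assay was run in six technical replicates.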

The variants keep the heavy chain, the linker and the frameworks of Ab-14 (scFv order VH, a (GGGGS)3 linker, VL).
VH: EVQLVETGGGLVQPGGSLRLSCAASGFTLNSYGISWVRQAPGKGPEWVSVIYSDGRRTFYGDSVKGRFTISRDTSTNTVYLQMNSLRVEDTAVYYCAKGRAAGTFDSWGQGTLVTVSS
VL: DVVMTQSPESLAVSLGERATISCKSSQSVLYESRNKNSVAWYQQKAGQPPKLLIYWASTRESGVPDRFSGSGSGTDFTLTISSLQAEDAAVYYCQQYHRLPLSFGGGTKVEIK

Each variant is given by its three light chain CDRs, as the data file delimits them; those of the parent are KSSQSVLYESRNKNSVA, WASTRES, QQYHRLPLS.
Values are log10 of the apparent Kd in nM; lower means stronger binding.
A mean of the replicates is given; it leaves out those without a signal.

| # | CDR-L1 | CDR-L2 | CDR-L3 | log10 Kd (nM) by replicate | log10 Kd (nM), mean | control signals |
|---|---|---|---|---|---|---|
| 1 | KFSQSVMYESRNKNSVA | EASTRES | QQYHRLPLS | 0.66 / 0.51 / 0.28 / 0.26 / 0.55 / 0.46 | 0.45 | 2/18 (3.52) |
| 2 | KLQQSEQYESRNKNSVA | NASTRES | QQYHRLPLS | 0.39 / 0.37 / 0.29 / 0.09 / -0.01 / 0.30 | 0.24 | 0/18 |
| 3 | KLSQSVLYESRNKNSVA | HASQRES | QDYHRLPLS | 0.40 / 0.27 / -0.09 / -0.08 / 0.22 / 0.12 | 0.14 | 1/18 (1.94) |
| 4 | KLSQLELYESRNKNSVA | NASTRMS | QQYHRLPLS | -0.29 / -0.23 / -0.27 / -0.29 / -0.47 / -0.22 | -0.29 | 0/18 |
| 5 | KLSQSDGYESRNKNSVA | NASTRES | QQYHRLPLS | -0.31 / -0.44 / -0.52 / -0.38 / -0.52 / -0.33 | -0.41 | 0/18 |
| 6 | KVSQSWLYESRNKNSVA | NASLRES | QQYHRLPLS | 0.85 / 0.72 / 0.74 / 0.30 / 0.72 / 0.35 | 0.61 | 1/18 (2.23) |
| 7 | KLDQSELYESRNKNSVA | EASTRES | QQYHRLPLS | -0.16 / -0.29 / -0.43 / -0.44 / -0.36 / -0.26 | -0.32 | 1/18 (2.81) |
| 8 | KLSQSVWYESRNKNSVA | EASTRES | QQYHRLPLS | -0.13 / -0.06 / -0.52 / -0.42 / -0.55 / -0.10 | -0.30 | 1/18 (2.07) |
| 9 | KLSQSHLYESRNKNSVA | QASTREV | QQYHRLPLS | 0.33 / -0.06 / -0.02 / 0.09 / 0.01 / 0.39 | 0.12 | 0/18 |
| 10 | KLSQSVLYEQRNKNSVA | EASTRLS | QQYHRLPLS | 0.34 / -0.10 / -0.02 / -0.25 / 0.07 / 0.15 | 0.03 | 0/18 |
| 11 | KLSQSELYESRNKNSVA | DASTRLS | QQYHRLPLS | -0.10 / -0.12 / -0.02 / -0.30 / -0.40 / -0.30 | -0.21 | 1/18 (1.79) |
| 12 | KLQQSKLYESRNKNSVA | NASQRES | QQYHRLPLS | 0.60 / 0.36 / 0.24 / 0.11 / 0.06 / 0.42 | 0.30 | 2/18 (2.58) |
| 13 | KLYQSVLYESRNKNSVA | NASTRLS | QQYHRLPLS | 0.31 / 0.33 / 0.19 / -0.01 / 0.04 / 0.27 | 0.19 | 1/18 (3.14) |
| 14 | KLSQSQLYESRNKNSVA | DASTRLS | QQYHRLPLS | -0.23 / -0.40 / -0.39 / -0.54 / -0.57 / -0.21 | -0.39 | 0/18 |
| 15 | KLSQSELYESRMKNSVA | NASTREE | QQYHRLPLS | 0.82 / 0.82 / 0.21 / 0.48 / 0.42 / 1.07 | 0.64 | 0/18 |
| 16 | KVSGSWLYESRNKNSVA | NASTRES | QQYHRLPLS | 0.24 / 0.03 / 0.01 / -0.03 / -0.31 / -0.11 | -0.03 | 0/18 |
| 17 | KLQQSVHYESRNKNSVA | NASTRES | QQYHRLPLS | 0.36 / -0.01 / -0.09 / -0.03 / 0.05 / 0.19 | 0.08 | 0/18 |
| 18 | KLMQSVPYESRNKNSVA | NASTRMS | QQYHRLPLS | 0.15 / 0.00 / -0.29 / -0.05 / -0.13 / -0.01 | -0.06 | 3/18 (2.42) |
| 19 | KLSQLVLYESRNKNSVA | NASTRES | QQYHRLPLS | 0.00 / -0.31 / -0.29 / -0.31 / -0.32 / -0.28 | -0.25 | 0/18 |
| 20 | KLQQSELYESRNKNSVA | EASTRLS | QQYHRLPLS | 0.55 / 0.74 / 0.40 / 0.33 / 0.44 / 0.46 | 0.49 | 0/18 |
| 21 | KLSQSVWMESRNKNSVA | EASTRES | QQYHRLPLS | 0.31 / 0.18 / 0.33 / 0.45 / 0.61 / 0.49 | 0.39 | 1/18 (2.13) |
| 22 | KLSQSHLYESRNKNSVA | EASTRES | QAYHRLPLS | 0.41 / 0.37 / 0.27 / 0.30 / 0.24 / 0.42 | 0.34 | 2/18 (3.35) |
| 23 | KLEQSVEYESRNKNSVA | EASTRES | QQYHRLPLS | -0.03 / -0.18 / -0.20 / -0.33 / -0.23 / -0.13 | -0.18 | 1/18 (2.04) |
| 24 | KLSQSELYESRNKNNVA | GASQRES | QQYHRLPLS | 0.15 / -0.04 / -0.14 / 0.10 / 0.03 / 0.07 | 0.03 | 0/18 |
| 25 | KLMQSVLYESRNKNSVA | NASQRES | QQYHRLPLS | 0.12 / 0.08 / 0.06 / 0.04 / 0.03 / 0.10 | 0.07 | 1/18 (2.32) |
| 26 | KLSQSKLYESRNKNSVA | DASQRES | QQYHRLPLS | -0.26 / -0.73 / -0.37 / -0.60 / -0.55 / -0.51 | -0.50 | 1/18 (1.44) |
| 27 | KLSQSYLYEERNKNSVA | NASTRES | QQYHRLPLS | 0.14 / 0.09 / 0.08 / -0.13 / -0.08 / -0.04 | 0.01 | 1/18 (3.91) |
| 28 | KLYQSVGYESRNKNSVA | NASQRES | QQYHRLPLS | 0.01 / -0.38 / -0.46 / -0.73 / -0.65 / -0.44 | -0.44 | 0/18 |
| 29 | KVDQSDLYESRNKNSVA | EASTRES | QQYHRLPLS | 0.23 / 0.31 / 0.31 / 0.25 / 0.05 / 0.28 | 0.24 | 1/18 (2.21) |
| 30 | KVMQSNLYESRNKNSVA | NASQRES | QQYHRLPLS | 0.26 / 0.05 / 0.03 / 0.07 / 0.05 / 0.06 | 0.09 | 3/18 (2.71) |
| 31 | KLSQSVLYESRNKNSVA | EASQRCS | QQYHRLPLS | 0.17 / 0.14 / -0.07 / -0.20 / -0.13 / 0.11 | 0.00 | 1/18 (4.08) |
| 32 | KLYQSVLYESRNKNSVA | NASTRMS | QQYHRLPLS | 0.54 / 0.61 / -0.09 / 0.33 / 0.10 / 0.39 | 0.31 | 0/18 |
| 33 | KVSGSELYESRNKNSVA | EASTRES | QQYHRLPLS | -0.17 / -0.29 / -0.06 / -0.28 / -0.21 / -0.15 | -0.19 | 1/18 (1.80) |
| 34 | KMSQSWLYESRNKNSVA | NASQRES | QQYHRLPLS | 0.14 / 0.03 / -0.16 / -0.29 / -0.06 / 0.05 | -0.05 | 1/18 (2.76) |
| 35 | KLSQSCLYESRNKNSVA | EASTRLS | QQYHRLPLS | 0.18 / 0.28 / 0.52 / -0.07 / 0.35 / 0.29 | 0.26 | 1/18 (2.30) |
| 36 | KLSQSWLYESRNKNSVA | GASTRES | QDYHRLPLS | 0.16 / 0.17 / -0.03 / -0.19 / -0.14 / 0.05 | 0.00 | 2/18 (3.02) |
| 37 | KLSQSVLYEQRNKNSVA | EASTRMS | QQYHRLPLS | 0.13 / 0.11 / -0.23 / -0.05 / -0.04 / 0.09 | 0.00 | 1/18 (3.66) |
| 38 | KLQQSTLYESRNKNSVA | NASQRLS | QQYHRLPLS | 0.02 / -0.15 / -0.20 / -0.22 / -0.21 / -0.09 | -0.14 | 2/18 (3.26) |
| 39 | KFPQSELYESRNKNSVA | NASQRES | QQYHRLPLS | -0.34 / -0.41 / -0.29 / -0.45 / -0.29 / -0.47 | -0.38 | 0/18 |
| 40 | KLSQSMLYESRNKNSVA | NASTRES | QQYHRLPLS | -0.31 / -0.36 / -0.35 / -0.45 / -0.46 / -0.35 | -0.38 | 1/18 (5.35) |
| 41 | KLPQSKLYESRNKNSVA | NASTRES | QQYHRLPLS | 0.08 / -0.14 / 0.01 / -0.11 / -0.21 / 0.05 | -0.05 | 1/18 (2.74) |
| 42 | KLPQSELYESRNKNSVA | SASQRES | QQYHRLPLS | 0.15 / -0.01 / 0.17 / -0.19 / -0.11 / 0.22 | 0.04 | 0/18 |
| 43 | KLSQSMLYESRNKNSVA | NASTREL | QQYHRLPLS | -0.13 / -0.26 / -0.27 / -0.38 / -0.31 / -0.17 | -0.25 | 0/18 |
| 44 | KLSQGQLYESRNKNSVA | NASTRES | QQYHRLPLS | 0.23 / 0.00 / -0.09 / -0.03 / 0.12 / 0.30 | 0.09 | 0/18 |
| 45 | KLSQSDLYESRNKNSVA | EASTREK | QQYHRLPLS | 2.23 / 0.46 / -0.15 / -0.30 / 0.47 / 0.35 | 0.51 | 0/18 |
| 46 | KLSQSVLYESRNKNSVA | DASTRFS | QQYHRLPLS | 0.10 / -0.21 / 0.00 / -0.03 / -0.07 / -0.03 | -0.04 | 1/18 (1.92) |

Top 6 of the variants detected in all replicates, tightest first:

| CDR-L1 | CDR-L2 | CDR-L3 | log10 Kd (nM) by replicate | log10 Kd (nM), mean | control signals |
|---|---|---|---|---|---|
| KLSQSKLYESRNKNSVA | DASQRES | QQYHRLPLS | -0.26 / -0.73 / -0.37 / -0.60 / -0.55 / -0.51 | -0.50 | 1/18 (1.44) |
| KLYQSVGYESRNKNSVA | NASQRES | QQYHRLPLS | 0.01 / -0.38 / -0.46 / -0.73 / -0.65 / -0.44 | -0.44 | 0/18 |
| KLSQSDGYESRNKNSVA | NASTRES | QQYHRLPLS | -0.31 / -0.44 / -0.52 / -0.38 / -0.52 / -0.33 | -0.41 | 0/18 |
| KLSQSQLYESRNKNSVA | DASTRLS | QQYHRLPLS | -0.23 / -0.40 / -0.39 / -0.54 / -0.57 / -0.21 | -0.39 | 0/18 |
| KLSQSMLYESRNKNSVA | NASTRES | QQYHRLPLS | -0.31 / -0.36 / -0.35 / -0.45 / -0.46 / -0.35 | -0.38 | 1/18 (5.35) |
| KFPQSELYESRNKNSVA | NASQRES | QQYHRLPLS | -0.34 / -0.41 / -0.29 / -0.45 / -0.29 / -0.47 | -0.38 | 0/18 |

Of ten entries with the parent sequence, four were seen in most replicates (averages 0.34 to 2.37), three in one and three in none, so single entries are noisy.
The range of this assay differs from that of the first round, and the authors advise against merging the two.
The authors averaged sequences with at least three values out of six and counted those with two or fewer as poor binders.
Background: pairings of all light chain designs with three empty control strains gave a value in 4% of cases (median 2.64, 5th percentile 1.59). Values in that range, when seen in few replicates, are hard to tell from nonspecific mating. For each scFv, signals with the empty controls are counted beside the result, with their mean in brackets.

From the AlphaSeq antibody data of Li et al. 2023 (doi:10.1038/s41467-023-39022-2), copy in the FLAb collection.